The source of these data is PubChem BioAssay AID624170 (National Center for Advancing Translational Sciences (NCATS), 2012).

Protein sequences, listed by entry. Tags and fused reporters are not part of them.
UniProt O94925, whole entry: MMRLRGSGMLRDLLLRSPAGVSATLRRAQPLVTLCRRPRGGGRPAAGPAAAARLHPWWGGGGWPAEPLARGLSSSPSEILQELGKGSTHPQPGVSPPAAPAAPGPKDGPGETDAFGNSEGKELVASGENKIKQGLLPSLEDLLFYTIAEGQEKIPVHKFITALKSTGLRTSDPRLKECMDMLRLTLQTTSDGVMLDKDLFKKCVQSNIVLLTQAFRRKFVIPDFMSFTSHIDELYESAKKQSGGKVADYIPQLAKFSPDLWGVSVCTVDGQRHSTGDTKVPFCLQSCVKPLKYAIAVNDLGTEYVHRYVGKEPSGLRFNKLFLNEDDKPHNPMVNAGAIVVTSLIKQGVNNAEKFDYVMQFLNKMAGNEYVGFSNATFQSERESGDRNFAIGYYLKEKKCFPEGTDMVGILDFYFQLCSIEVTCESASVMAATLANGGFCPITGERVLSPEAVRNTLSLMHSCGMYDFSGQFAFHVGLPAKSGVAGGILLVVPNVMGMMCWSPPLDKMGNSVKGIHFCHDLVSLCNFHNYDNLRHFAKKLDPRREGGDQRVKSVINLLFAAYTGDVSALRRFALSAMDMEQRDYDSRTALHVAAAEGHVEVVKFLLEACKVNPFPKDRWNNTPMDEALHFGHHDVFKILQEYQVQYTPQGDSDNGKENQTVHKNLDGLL

The entries are a selection whose mix differs from that of the whole data set. Records with an inconclusive call do not appear. The source made the active and inactive calls. Calls come from the whole dose curve; as a rule, active = well fitted inhibition curve with a large enough effect; inconclusive = small, poorly fitted or top-dose-only effect, or another doubt; inactive = no such curve, though single readings can be large or run the other way.
% is set by controls: 0 for no effect and ±100 for the full control effect.

This assay deals with Glutaminase kidney isoform, mitochondrial (Homo sapiens) (UniProt O94925). Description: qHTS for Inhibitors of Glutaminase (GLS). The following applies: GLS enzymatic activity, qHTS titration; at 45.5 µM (top of the series) unless noted. (In general: Quantitative high-throughput screening tests each substance at several concentrations.)
Take `O=[N+]([O-])c1cc([N+](=O)[O-])c(Nc2cccnc2)c([N+](=O)[O-])c1`: the activity change, negative = inhibition was inactive: -4.95%.

Consider `CC(C)(C)c1ccc(OP(C)(=O)Nc2ccc(SC(F)(F)F)cc2)cc1` (stereo not drawn), for which the activity change, negative = inhibition is inactive: -15.7%.

For `Cc1cccc(C)c1OP(C)(N)=O` (stereo not drawn), the activity change, negative = inhibition is inactive: 7.72%.

For `O=[N+]([O-])c1ccc2c(c1)C=Nc1ccccc1O2`, the activity change, negative = inhibition is inactive: 11.3%.

Consider `CCOC(=O)c1ccc(NP(C)(=O)Oc2ccccc2)cc1` (stereo not drawn), for which the activity change, negative = inhibition is inactive: 2.47%.

As for `COc1ccccc1OP(C)(=O)Nc1ccc(C)cc1` (stereo not drawn), the activity change, negative = inhibition was inactive: 18.2%.

Take `Cc1ccc(NP(C)(=O)Oc2ccccc2)c(C)c1` (stereo not drawn): the activity change, negative = inhibition was inactive: 9.38%.

Consider `COc1ccccc1OP(C)(=O)Nc1cc(Cl)ccc1C` (stereo not drawn), for which the activity change, negative = inhibition is inactive: -18.5%.

Regarding `COc1ccc(OP(C)(=O)Nc2cccc(F)c2)cc1` (stereo not drawn), the activity change, negative = inhibition was inactive: -5.53%.

With `Cc1cc(C)cc(OP(C)(N)=O)c1` (stereo not drawn), the activity change, negative = inhibition was inactive: -15.5%.

On to `CCN(CC)CCCOC(=O)C(O)(c1ccccc1)c1ccccc1`, for which the activity change, negative = inhibition is inactive: -0.869%.

For the molecule `O=[N+]([O-])[O-].[NH4+]`, the activity change, negative = inhibition is inactive: 2.14%.

In the case of `COc1ccccc1-c1ccccn1.O=[N+]([O-])c1cc([N+](=O)[O-])c(O)c([N+](=O)[O-])c1`, the activity change, negative = inhibition was inactive: -6.69%.

Turning to `CP(=O)(Nc1ccc(SC(F)(F)F)cc1)Oc1ccc(Cl)cc1` (stereo not drawn), the activity change, negative = inhibition was inactive: -0.39%.

Turning to `Cc1cccc(C)c1OP(C)(=O)Nc1ccc(SC(F)(F)F)cc1` (stereo not drawn), the activity change, negative = inhibition was inactive: 1.19%.

In the case of `CP(=O)(Oc1ccccc1)OC(c1ccccc1)C(F)(F)F` (stereo not drawn), the activity change, negative = inhibition is inactive: -0.0458%.

For the molecule `CCc1ccc(OP(C)(=O)N2CCN(c3ccc([N+](=O)[O-])cc3)CC2)cc1` (stereo not drawn), the activity change, negative = inhibition is inactive: -1.49%.

For `CP(=O)(NC(=O)Nc1ccccc1)Oc1ccccc1` (stereo not drawn), the activity change, negative = inhibition is inactive: 27.1%.

With `Cc1cc(C)cc(OP(C)(=O)Nc2ccc(SC(F)(F)F)cc2)c1` (stereo not drawn), the activity change, negative = inhibition was inactive: -0.526%.

For the molecule `CCOP(C)(=S)SCC(=O)NC(C)C(=O)O` (stereo not drawn), the activity change, negative = inhibition is inactive: -6.1%.

As for `O=[N+]([O-])c1cc([N+](=O)[O-])c(O)c([N+](=O)[O-])c1.c1ccc(Oc2ccncc2)cc1`, the activity change, negative = inhibition was inactive: 39.5%.

Take `CCOC(=O)c1ccc(NP(C)(=O)Oc2ccc(OC)cc2)cc1` (stereo not drawn): the activity change, negative = inhibition is inactive: 6.84%.

`CN(C)CCS`: the activity change, negative = inhibition is inactive: 13.7%.

In the case of `CP(=O)(Nc1ccccn1)Oc1ccc(Cl)cc1` (stereo not drawn), the activity change, negative = inhibition is inactive: -1.24%.

Consider `CP(=S)(Nn1cnnc1)Oc1ccccc1` (stereo not drawn), for which the activity change, negative = inhibition is inactive: 6.52%.

In the case of `COc1ccccc1OP(C)(=O)Nc1ccccc1` (stereo not drawn), the activity change, negative = inhibition was inactive: -1.1%.

For `CP(=O)(Nc1ccccc1Br)Oc1ccccc1` (stereo not drawn), the activity change, negative = inhibition was inactive: -0.298%.

Turning to `O=[N+]([O-])c1cc([N+](=O)[O-])c(Nc2nnnn2CCO)c([N+](=O)[O-])c1`, the activity change, negative = inhibition is inactive: 6.49%.
